Laboratory results: published antibiotic growth screens (doi:10.1038/s41589-023-01349-8)
Some of the results follow.

tested on: A. baumannii ATCC 17978; experiment: relative growth (fraction of control); higher = less inhibition; settings: 50 µM

| SMILES | relative growth |
| --- | --- |
| CO[C@H]1CC(O[C@@H]2/C(C)=C/C[C@@H]3C[C@@H](C[C@]4(CC[C@H](C)[C@@H](C5CCCCC5)O4)O3)OC(=O)[C@@H]3C=C(C)/C(=N/O)[C@H]4OC/C(=C\C=C\[C@@H]2C)[C@]43O)O[C@@H](C)C1O (stereo partly drawn) | 1.01 |
| O=c1cc(-c2ccc(O)cc2)oc2ccc(O)cc12 | 1.04 |
| CC(=O)NS(=O)(=O)c1ccc(NC(=O)c2ccccc2C(=O)O)cc1 | 0.969 |
| CC[C@@H]1OC(=O)C[C@@H](O)[C@H](C)[C@@H](O[C@@H]2O[C@H](C)[C@@H](O)[C@H](N(C)C)[C@H]2O)[C@@H](CCN2C[C@H](C)C[C@H](C)C2)C[C@@H](C)C(=O)/C=C/C(C)=C\[C@@H]1CO[C@@H]1O[C@H](C)[C@@H](O)[C@@H](OC)[C@H]1OC | 0.674 |
| COCCN[C@H]1CS(=O)(=O)C[C@@H]1O | 1.08 |
| O=C(C[C@@H]1CC[C@@H]2[C@H](COC[C@@H](O)CN2C(=O)Nc2cccc(Cl)c2)O1)NCc1ccccc1F | 1.01 |
| Cc1c[nH]c2ccccc12 | 1.15 |
| c1ccc(CNc2ccc3c(ccc4c5ccccc5[nH]c34)n2)cc1 | 0.959 |
| CC(S)C(=O)NCC(=O)O (stereo not drawn) | 1.02 |
| O=C(c1ccccc1F)N1CCNCC1 | 1.04 |
| CC[N+](CC)(CC(=O)Nc1c(C)cccc1C)Cc1ccccc1.O=C([O-])c1ccccc1 | 1.11 |
| Cn1cnc(CCNC(=O)C[C@@H]2CC[C@@H]3[C@H](COC[C@H](O)CN3C(=O)C3CC3)O2)c1 | 0.8 |
| COc1ccc(NC(=O)N[C@H]2CC[C@H](CCNC(=O)CN3CCOCC3)O[C@@H]2CO)cc1 | 0.959 |
| CNC[C@H](O)c1ccc(O)c(O)c1 | 0.936 |
| Fc1ccccc1[C@H]1Nc2ccc3ccccc3c2[C@H]2C=CC[C@@H]21 | 1.21 |
| CC(=O)OC[C@H]1O[C@@H](n2cc(C)c(=O)[nH]c2=O)C[C@@H]1OC(C)=O | 1.02 |
| C[C@@H]1CN([C@@H](C)CO)S(=O)(=O)c2ccc(-c3ccc(F)cc3)cc2O[C@H]1CN(C)C(=O)C1CCOCC1 | 0.885 |
| Cc1ccc(S(=O)(=O)N[C@@H]2CC[C@@H](CC(=O)N3CCC(Cc4ccccc4)CC3)O[C@H]2CO)cc1 | 0.772 |
| CC(=O)N[C@H]1[C@H](Oc2nc3cc(C)ccc3o2)O[C@H](CO)[C@@H](O)[C@@H]1O | 1.08 |
| C=c1[nH]/c(=C\c2ccc(F)cc2)c(=O)o1 | 0.909 |
| COC(=O)C1=CO[C@@H](O[C@@H]2O[C@H](CO)[C@@H](O)[C@H](O)[C@H]2O)[C@@H]2[C@@H](CO)C=C[C@H]12 | 0.927 |
| O=S(=O)(Nn1cnnc1)c1ccccc1 | 0.935 |

| SMILES | relative growth |
| --- | --- |
| CCOCCCNc1nc2c([nH]1)c(=O)n(C)c(=O)n2C | 1.02 |
| O=C(C[C@H]1C=C[C@H](NS(=O)(=O)c2ccc(F)cc2)[C@@H](CO)O1)NCCN1CCCCC1 | 1.08 |
| C=c1[nH]/c(=C/c2cccnc2)c(=O)o1 | 0.947 |
| C[C@@H]1[C@@H]([Si](C)(C)F)[C@H](CCn2cc([C@H](O)c3ccccc3)nn2)O[C@@]12C(=O)N(c1ccccc1)c1ccccc12 | 0.949 |
| C=CC[C@@H](CC(=O)N(CCO)Cc1ccccc1)C(=O)N[C@H](COC(=O)[C@@H](CC=C)Cc1ccc(F)cc1)c1ccccc1 | 0.948 |
| CC(=O)O[C@H]1C[C@@H](O)C(C)(C)C2C[C@@H](OC(C)=O)[C@]3(C)C(CC[C@@]4(C)[C@H](c5ccoc5)OC(=O)C5OC543)[C@]21C (stereo partly drawn) | 1 |
| Nc1ccn([C@H]2CC[C@@H](CO)O2)c(=O)n1 | 0.934 |
| Oc1cc(O)c2c(c1)O[C@H](c1cc(O)c(O)c(O)c1)[C@H](O)C2 | 1.24 |
| CN1C(=N)NC(=O)/C1=C/c1cccnc1 | 0.819 |
| CN(C(=O)C(Cl)Cl)c1ccc(OC(=O)c2ccco2)cc1 | 0.888 |
| COc1cc(/C=C/C(N)=O)cc(OC)c1OC | 0.936 |
| Cn1nnnc1-c1ccco1 | 0.87 |
| CC(CCC(=O)O)C1CC[C@H]2C3[C@H](O)C[C@@H]4C[C@H](O)CCC4(C)[C@H]3C[C@H](O)C12C (stereo partly drawn) | 1.2 |
| C=CCNC(N)=S | 0.863 |
| CC(=O)OC[C@H](N)C(=O)O | 0.848 |
| O=C(O)CCCNc1n[nH]c(=O)[nH]c1=O | 1 |
| Nc1nc(=O)c2ncn(COC(CO)CO)c2[nH]1 | 0.968 |
| C[C@H](O)C#Cc1ccc2c(c1)O[C@H](CN(C)C(=O)C1CCCCC1)[C@H](C)CN([C@H](C)CO)S2(=O)=O | 1.01 |
| CCCNC(=O)N1C[C@H](C)[C@@H](OC)CN(C)C(=O)c2cc(NS(=O)(=O)CC(F)(F)F)ccc2OC[C@H]1C | 0.957 |
| CC[C@@H](C)[C@H]1NC(=O)NC1=O | 0.851 |
| Cn1cnc(S(=O)(=O)N[C@@H]2C=C[C@@H](CC(=O)Nc3ccccc3)O[C@@H]2CO)c1 | 1.03 |
